This is an account of results in ChEMBL document CHEMBL5230155, “Recent contributions of quinolines to antimalarial and anticancer drug discovery research” (Eur J Med Chem, 2021).

By UniProt entry, the sequences of proteins in these tests, tags left out.
UniProt P35354, whole entry: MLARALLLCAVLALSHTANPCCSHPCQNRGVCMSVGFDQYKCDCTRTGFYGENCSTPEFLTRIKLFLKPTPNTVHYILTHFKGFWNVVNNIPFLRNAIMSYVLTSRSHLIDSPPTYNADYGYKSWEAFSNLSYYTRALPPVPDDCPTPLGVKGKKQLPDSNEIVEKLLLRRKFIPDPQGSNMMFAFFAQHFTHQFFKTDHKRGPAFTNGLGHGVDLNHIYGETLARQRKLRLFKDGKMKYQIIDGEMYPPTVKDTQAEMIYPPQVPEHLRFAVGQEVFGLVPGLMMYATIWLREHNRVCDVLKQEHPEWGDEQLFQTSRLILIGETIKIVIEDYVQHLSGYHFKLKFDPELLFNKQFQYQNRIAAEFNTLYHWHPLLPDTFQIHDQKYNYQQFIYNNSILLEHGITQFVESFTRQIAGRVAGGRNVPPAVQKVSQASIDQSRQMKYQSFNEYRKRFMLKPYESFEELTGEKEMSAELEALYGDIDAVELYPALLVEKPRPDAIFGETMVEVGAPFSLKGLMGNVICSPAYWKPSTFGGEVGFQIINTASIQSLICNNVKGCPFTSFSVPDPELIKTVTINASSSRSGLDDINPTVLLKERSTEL

The experiment deals with Prostaglandin G/H synthase 2 (Homo sapiens, UniProt P35354). Briefly: Potency index, ratio of celecoxib IC50 to test compound IC50 for inhibition of COX-2 (unknown origin).

Consider `COc1ccc2ccc(F)c(CC(=O)N/N=C/c3cccc(C(F)(F)F)c3)c2n1`, for which the Ratio IC50 is 3. As for `COc1ccc2ccc(F)c(CC(=O)N/N=C/c3ccc(C(F)(F)F)cc3)c2n1`, the figure is 3.
